ChEMBL document CHEMBL4725338, “Discovery of novel histone lysine methyltransferase G9a/GLP (EHMT2/1) inhibitors: Design, synthesis, and structure-activity relationships of 2,4-diamino-6-methylpyrimidines” (Bioorg Med Chem Lett, 2020)

Molecular target: T1, Histone-lysine N-methyltransferase EHMT2 (Homo sapiens, UniProt Q96KQ7)
T1 sequence (Q96KQ7 whole entry): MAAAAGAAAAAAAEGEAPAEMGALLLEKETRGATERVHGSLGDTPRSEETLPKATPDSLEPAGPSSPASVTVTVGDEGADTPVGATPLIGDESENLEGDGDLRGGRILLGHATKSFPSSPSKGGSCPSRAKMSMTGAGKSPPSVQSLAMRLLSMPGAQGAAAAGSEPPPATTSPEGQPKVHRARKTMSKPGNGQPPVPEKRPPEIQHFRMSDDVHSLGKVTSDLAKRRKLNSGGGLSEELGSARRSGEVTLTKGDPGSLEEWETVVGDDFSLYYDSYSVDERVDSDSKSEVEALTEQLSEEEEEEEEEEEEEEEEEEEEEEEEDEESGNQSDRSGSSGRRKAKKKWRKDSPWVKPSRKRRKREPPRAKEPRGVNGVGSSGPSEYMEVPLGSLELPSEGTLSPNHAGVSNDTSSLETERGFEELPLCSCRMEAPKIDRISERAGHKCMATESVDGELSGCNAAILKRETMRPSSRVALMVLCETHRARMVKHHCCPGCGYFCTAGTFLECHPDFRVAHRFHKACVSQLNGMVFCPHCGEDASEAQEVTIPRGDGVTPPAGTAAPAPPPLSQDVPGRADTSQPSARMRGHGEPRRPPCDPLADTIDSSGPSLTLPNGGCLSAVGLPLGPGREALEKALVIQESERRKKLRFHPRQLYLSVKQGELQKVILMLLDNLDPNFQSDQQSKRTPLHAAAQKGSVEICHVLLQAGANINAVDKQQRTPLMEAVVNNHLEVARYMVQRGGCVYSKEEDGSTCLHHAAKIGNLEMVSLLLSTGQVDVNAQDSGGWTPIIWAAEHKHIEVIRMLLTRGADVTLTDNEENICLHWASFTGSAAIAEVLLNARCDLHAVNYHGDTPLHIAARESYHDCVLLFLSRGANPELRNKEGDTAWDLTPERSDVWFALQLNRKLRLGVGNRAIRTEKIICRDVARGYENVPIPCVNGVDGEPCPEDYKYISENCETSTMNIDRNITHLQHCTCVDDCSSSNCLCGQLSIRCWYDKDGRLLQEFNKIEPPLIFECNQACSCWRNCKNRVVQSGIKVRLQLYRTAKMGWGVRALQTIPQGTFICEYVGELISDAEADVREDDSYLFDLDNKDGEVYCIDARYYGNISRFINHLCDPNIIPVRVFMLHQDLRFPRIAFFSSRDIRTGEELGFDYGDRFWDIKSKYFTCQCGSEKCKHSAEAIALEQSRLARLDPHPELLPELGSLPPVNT
Assay: Inhibition G9a (unknown origin)

IC50: 15.1 nM
Structure (SMILES): CNc1cc(C)nc(Nc2ccc(OC)c(C3=CCN(C)CCC3)c2)n1
